{"source": "paper PMC8837702", "about": "(Archives of toxicology, 2021)", "test_system": "UV5 DNA repair-deficient CHO cells stably expressing CYP1A1 and NAT1", "experiment": "dG-C8-ABP adduct quantification by mass spectrometry", "type": "cell-based, Chinese hamster", "conditions": "in situ, CHO cells treated 24 hr", "note": "Entries after “also recorded” stand apart in the source; their conditions may differ."}
{"substance": "9,10-dihydro-9,10-dioxo-1,2-anthracenediyl diethyl ester [Compound 10]", "values": [{"measurement": "ABP-induced dG-C8-ABP adduct formation", "value": "decreased; also recorded: concentration -dependent inhibition"}]}
